Source: patent publication US10266806B2, “Stem cell-derived hepatocytes in co-culture and uses thereof” (Colorado State University Research Foundation, priority 2014, dated 2019)

Tested on: CYP1A2
Test: CYP1A2 induction in iMPCCs (7-ethoxyresorufin O-dealkylation)
Format: cell-based, human

## β-naphthoflavone
4 days
  induction of iMPCC CYP1A2 activity: dose-dependent manner
Same dose and duration
  CYP1A2 fold induction in iMPCCs as % of values in PHH-MPCCs: ~70%
